Data reported in US20260388712A1, “OPTIMIZED DRUG SCREENING USING ARTIFICIAL INTELLIGENCE” (published 2026).

Key:
[1] = tested on: fibrolamellar carcinoma (FLC); details: previous clinical trial(s); cited from earlier work
[2] = tested on: colorectal cancer liver metastases needle biopsy cuboids; test: Viability of needle biopsy cuboids from colorectal cancer liver metastases; details: 500 nM, 48 hours
Source text: FIG. 16A to FIG. 16D show drug screening in needle biopsy samples. FIG. 16A is a schematic illustrating the process of cutting 18-gauge core needle biopsy samples into 3D cuboids using a tissue chopper and placing them in U-bottom 96-well plates with viability dye. […] FIG. 16C and FIG. 16D show the response to standard-of-care drugs measured in 3D cuboids generated from liver tumor (FIG. 16C) or cholangiocarcinoma sample (FIG. 16D), with each bar representing the mean of at least 2-3 wells. Each well contained at least three cuboids. Error bars represent SEM.
Responses to 25-40 drugs using tissues obtained from a single needle biopsy were successfully assessed in less than five days. This approach involves mechanically cutting the needle biopsy samples into ~400 μm-wide cuboidal-shaped micro-dissected tissues, resulting in 300-1000 cuboids per sample. These cuboids are placed in hydrogel-coated, 96-well U-bottom plates with Realtime-glo viability detection reagent, with each well containing at least three cuboids (see FIG. 16A).
Responses to standard-of-care chemotherapy drugs in needle biopsies from colorectal cancer liver metastases were also evaluated. Needle biopsy cuboids were treated with chemotherapy drugs as single agents (500 nM) or in combination (250 nM for each drug). Staurosporine (STS) was used as a positive control. […]

[3] = tested on: Wnt signaling in RKO cells; test: Validation of Wnt pathway effects in independent RKO cells; details: data not shown
Protocol: To identify chemical modulators of Wnt signaling, HEK293 STF cells were treated with Wnt3a in the presence of 254 principal set drugs at a concentration of 2.5 μM (see FIG. 11B). A negative control of DMSO was used. TCF activity was measured 24 hours after drug treatment using luciferase assay, and the resulting changes in TCF activity in response to the 254 principal drug set were used as the output. Meanwhile, the responses to the 254 principal drug set in 475 cancer cell lines were used as input to generate CNN models, and hyperparameter tuning with ten-fold cross-validation was used to evaluate the accuracy of the predictions (see FIG. 11C). The optimized hyperparameters were then used to predict responses to the full 3897 Diversity drug set (see FIG. 11D). […] GSK3β is known to phosphorylate and target β-catenin for proteasomal degradation (see Steinhart and Angers, supra). Therefore, GSK3β inhibition can lead to increased B-catenin levels and enhanced TCF-mediated transcription. […]

[4] = tested on: Wnt-driven TCF activity (canonical Wnt pathway); test: TCF activity (TOPFLASH luciferase) in HEK293 STF cells treated with Wnt3a; details: 2.5 μM, 24 hours, luciferase assay, FIG. 11E
Protocol: FIG. 11A to FIG. 11E show identification and validation of inhibitors and activators of the Wnt pathway using a principal drug set to predict cellular responses to a full diversity set. FIG. 11A is a schematic showing the Wnt-dependent activation of β-catenin-TCF. FIG. 11B is an illustration showing the overall experimental design using HEK293 super topflash cells (STF). Cells were treated with the principal drug set in the presence of Wnt3a, and TCF activity was measured 24 hours later. The resulting data was used for CNN modeling. FIG. 11C is a plot showing the accuracy of the CNN model in predicting response to the training dataset (254 drugs).
Wnt proteins are growth factors that play a crucial role in various biological processes, such as proliferation, migration, and differentiation (see Nusse, Cold Spring Harbor Perspectives in Biology 4:a011163, 2012; Steinhart and Angers, Development 145:dev146589, 2018). Abnormal activation of Wnt signaling has been linked to human developmental disorders and several types of cancer, including colon, skin, brain, and prostate cancer (see Zhan et al., Oncogene 36:1461-1473, 2017). […] The TOPFLASH (TCF binding site) luciferase reporters (see Biechele and Moon, Wnt Signaling: Pathway Methods and Mammalian Models, 99-110, 2008) in HEK293 cells can be used to quantitatively monitor-catenin-dependent transcription (see FIG. 11A). […]

FLC tumor slices = test: Viability of FLC tumor slices treated with inhibitors; details: PLK1 inhibitors, 500 nM, cryopreserved slices, vs DMSO
Source text: (§1) Bars represent the mean of two independent slices, and error bars denote SEM. ** p<0.01. FIG. 14B is a dose-response plot showing patient-derived primary FLC cells are sensitive to indicated PLK1 inhibitors. Onvansertib and CYC140 are clinical-grade PLK 1 inhibitors. […] Bars represent the mean of two independent slices, and error bars denote SEM. ** p<0.01, * p<0.05.
(§2) PLK1 inhibitors: Polo Like Kinases (PLK) are key regulators of centrosome maturation (Lee and Rhee, J. Cell Biol. 195:1093-1101, 2011), mitosis, and cell division (Lee et al., Development & Reproduction 18:65, 2014). Using cryopreserved FLC tumor slices and non-tumor liver tissues, the efficacies of two 2nd generation PLK1 inhibitors were measured. […] In contrast, the viability of slices prepared from the non-tumor liver from the same patient was not affected by the PLK1 inhibitor treatment. […] Whether pharmacological inhibition of PLK1 could inhibit FLC cell growth was also investigated. […] Given the encouraging results obtained from our initial experiments, we intend to further investigate the effectiveness of PLK1 inhibitors in a larger sample size of FLC cases. […]

non-tumor liver slices = test: Viability of non-tumor liver slices treated with inhibitors; details: PLK1 inhibitors, 500 nM, same patient
Source text: as §1, §2

[5] = tested on: patient-derived primary FLC cells; test: Dose-response in patient-derived primary FLC cells; details: PLK1 inhibitors
Source text: as §1, §2

Row | Compound | cuboid viability, single agent [2] | effect on Wnt signaling in RKO cells (in words) [3] | activated TCF activity [4] [fold] | further results
1 | Cc1cc(Nc2cc(N3CCN(C)CC3)nc(/C=C/c3ccccc3)n2)n[nH]1 |  |  |  | clinical outcome [1]: failed in the clinic
2 | CCc1c2c(nc3ccc(O)cc13)-c1cc3c(c(=O)n1C2)COC(=O)[C@]3(O)CC | significant decrease in cuboid viability |  |  | 
3 | COc1cc2nc(N3CCN(C(=O)c4ccco4)CC3)nc(N)c2cc1OC |  | validated | > 1500 | 
4 | CNC(=C[N+](=O)[O-])NCCSCc1ccc(CN(C)C)o1 |  | validated | > 1500 | 
5 | N[C@@H]1CCCC[C@H]1N.[Pt+2] | no change in cuboid viability |  |  | 
6 | CN1CCN(c2ccc(OC(F)(F)F)c(Nc3ncc4c(n3)-c3c(c(C(N)=O)nn3CCO)CC4)c2)CC1 |  |  |  | viability of FLC tumor slices (FLC tumor slices): significantly decrease the viability; viability of non-tumor liver slices (non-tumor liver slices): not affected; growth inhibition / sensitivity of primary FLC cells, in words ([5]; dose-response): outperforming the response of BI-2536; EC50 ([5]; growth of patient-derived primary FLC cells): 25 nM
